# Data from US20250205240A1, “COMBINATIONS” (Recurium IP Holdings, LLC, priority 2022, published 2025).
# What was measured:
# [1] = tested on: CTG-1009 PDX model (BRAFmt CRC); type: in vivo, female athymic nude Foxn1nu mice; conditions: ZN-c3 60 mg/kg QD p.o., encorafenib 20 mg/kg QD p.o., cetuximab 15 mg/kg BIW i.p., 28-day study
# Protocol: (§1) PDX Models: Tumor fragments (CRC769, CRC563, CTG-1009) were brought out of cryopreservation and implanted into female athymic nude Foxn1nu mice. Fragments were allowed to grow then excised once an appropriate volume was reached. A tumor slurry was made of 50% freshly harvested tumors minced to small tumor fragments in PBS and 50% Matrigel. The tumor slurry was injected subcutaneously into 6-8 week old female athymic nude Foxn1nu mice on the flank.
# (§2) Grouping and treatments started when the mean tumor volume reached about 220 mm^3 (with individual tumors in the range of 200-240 mm^3). Vehicle animals were treated daily with 10 mL/kg HP-β-CD p.o. (oral gavage). Encorafenib was prepared weekly in 0.5% carboxymethyl cellulose: 0.5% Tween 80:99% deionized water and dosed daily (QD) at the indicated doses orally (p.o.) (see Tables 4 and 5 for dosage amounts). ZN-c3 was prepared daily in 20% HP-B-CD and dosed daily at the indicated doses p.o. (see Tables 4 and 5 for dosage amounts). […] Body weight and tumor volume of all animals was measured twice weekly throughout the studies that were 21 or 22 days or 3 weeks in duration (for CDX models HT-29 and LS411N) or that were 28 days or 4 weeks in duration (for PDX models CRC769, CRC563 and CTG-1009). The measurement of tumor size was performed with a caliper and the tumor volume (mm3) was estimated using the formula: TV=a×b2/2 throughout the study, where “a” and “b” is long and short diameters of a tumor, respectively. Animals were euthanized when their individual tumor burden exceeded 2000 mm^3 or is in a continuing deteriorating condition or close to a comatose state.
# [2] = tested on: CRC563 PDX model (BRAFmt CRC); type: in vivo, female athymic nude Foxn1nu mice; conditions: ZN-c3 60 mg/kg QD p.o., encorafenib 20 mg/kg QD p.o., cetuximab 20 mg/kg BIW i.p., 28-day study
# Protocol: as §1, §2
# [3] = tested on: CRC769 PDX model (BRAFmt CRC); type: in vivo, female athymic nude Foxn1nu mice; conditions: ZN-c3 60 mg/kg QD p.o., encorafenib 20 mg/kg QD p.o., cetuximab 20 mg/kg BIW i.p., 28-day study
# Protocol: as §1, §2
# LS411N cell line = assay: In vitro tumor cell proliferation assay (3D spheroid, 3D CTG), LS411N; type: cell-based; conditions: LS411N spheroids, 192 h; 350 nM ZN-c3, 75 nM encorafenib, 25 μg/mL cetuximab; relative to 0.1% DMSO
# Protocol: (§3) Cell suspensions containing 1.5×10^3 total cells in 100 μL culture media were deposited in each well of an ultra-low attachment 96 well plate. Plates were incubated at 37° C. with […] and 5% CO2 for 72 h to allow for spheroid formation. […] ZN-c3 and/or Encorafenib compounds in DMSO were deposited into the plates using an automated drug dispenser at the indicated concentrations. Total DMSO content was normalized to 0.1% of the total volume in all assay conditions. Plates were sealed with breathable film to reduce evaporation and incubated at 37° C. with […] and 5% CO2 for 192 h. After 192 h, plates were removed from the incubator and allowed to come to room temperature. 100 μL room temperature 3D CTG reagent (Promega, Cat #G9683) was added to each well. Plates were agitated at 520 revolutions per minute (rpm) for 5 mins, allowed to stabilize protected from light for 30 mins, then luminescence was measured on an M5e plate reader (SpectraMax). Percent viability was calculated as percentage of cell viability relative to DMSO-only vehicle control.
# HT-29 cell line = assay: In vitro tumor cell proliferation assay (3D spheroid, 3D CTG), HT-29; type: cell-based; conditions: HT-29 spheroids, 192 h; 300 nM ZN-c3, 10 nM encorafenib, 25 μg/mL cetuximab; relative to 0.1% DMSO
# Protocol: as §3
# [4] = tested on: HT-29 CDX model (BRAFmt CRC); type: in vivo, BALB/c nude mice; conditions: ZN-c3 60 mg/kg QD p.o., encorafenib 15 mg/kg QD p.o., cetuximab 15 mg/kg BIW i.p.
# Protocol: (§4) CDX Models: 6-8 week old BALB/c nude mice were inoculated subcutaneously on the right flank with the single cell suspension of 95% viable tumor cells (5×10^6) in 100 μL RPMI 1640 without serum (COLO205), 95% viable tumor cells (2×10^6) in 100 μL McCoy's 5a Medium Modified without serum (HT-29), or 95% viable tumor cells (2×106) in 100 μL RPMI 1640 and Matrigel mixture (1:1 ratio) without serum (LS411N).
# as §2
# [5] = tested on: LS411N CDX model (BRAFmt CRC); type: in vivo, BALB/c nude mice; conditions: ZN-c3 60 mg/kg QD p.o., encorafenib 20 mg/kg QD p.o., cetuximab 15 mg/kg BIW i.p.
# Protocol: as §4, §2
substance,measurement,setting,value
cetuximab,TGI,[1],−42.6
same,TGI,[2],21.8
same,TGI,[3],−4.5
same,% Inhibition,LS411N cell line,0.91%
same,% Inhibition,HT-29 cell line,3.66%
same,Tumor Vol. Change from D 14-D 21 (%),[4],38.7%
same,TGI,[4]; 21- or 22-day study,12.2
same,Tumor Vol. Change from D 14-D 21 (%),[5],44.9%
same,TGI,[5]; 21- or 22-day study,15.9
